Measured values from patent US12011433B2, priority 2016, dated 2024).

Sequences of proteins named here, by UniProt entry; tags and fusion partners are left off. Residues count along the entry.
UniProt P05979, 25-600 limits assumed: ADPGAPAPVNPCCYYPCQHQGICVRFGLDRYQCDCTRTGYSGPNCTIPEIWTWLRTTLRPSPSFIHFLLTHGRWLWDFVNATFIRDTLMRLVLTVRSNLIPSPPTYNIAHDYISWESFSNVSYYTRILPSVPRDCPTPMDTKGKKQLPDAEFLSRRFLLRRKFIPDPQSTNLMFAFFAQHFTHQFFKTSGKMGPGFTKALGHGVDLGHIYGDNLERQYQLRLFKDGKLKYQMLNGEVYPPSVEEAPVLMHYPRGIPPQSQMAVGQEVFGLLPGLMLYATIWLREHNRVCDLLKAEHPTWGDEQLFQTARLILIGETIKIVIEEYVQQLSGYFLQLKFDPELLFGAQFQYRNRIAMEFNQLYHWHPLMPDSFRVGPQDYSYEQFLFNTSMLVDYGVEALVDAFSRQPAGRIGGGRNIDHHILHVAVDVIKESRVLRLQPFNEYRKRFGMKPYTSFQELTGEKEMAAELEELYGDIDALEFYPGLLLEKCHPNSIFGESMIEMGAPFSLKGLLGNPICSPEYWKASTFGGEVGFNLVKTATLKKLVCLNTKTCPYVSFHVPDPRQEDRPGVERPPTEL
UniProt P79208, 17-603 limits assumed: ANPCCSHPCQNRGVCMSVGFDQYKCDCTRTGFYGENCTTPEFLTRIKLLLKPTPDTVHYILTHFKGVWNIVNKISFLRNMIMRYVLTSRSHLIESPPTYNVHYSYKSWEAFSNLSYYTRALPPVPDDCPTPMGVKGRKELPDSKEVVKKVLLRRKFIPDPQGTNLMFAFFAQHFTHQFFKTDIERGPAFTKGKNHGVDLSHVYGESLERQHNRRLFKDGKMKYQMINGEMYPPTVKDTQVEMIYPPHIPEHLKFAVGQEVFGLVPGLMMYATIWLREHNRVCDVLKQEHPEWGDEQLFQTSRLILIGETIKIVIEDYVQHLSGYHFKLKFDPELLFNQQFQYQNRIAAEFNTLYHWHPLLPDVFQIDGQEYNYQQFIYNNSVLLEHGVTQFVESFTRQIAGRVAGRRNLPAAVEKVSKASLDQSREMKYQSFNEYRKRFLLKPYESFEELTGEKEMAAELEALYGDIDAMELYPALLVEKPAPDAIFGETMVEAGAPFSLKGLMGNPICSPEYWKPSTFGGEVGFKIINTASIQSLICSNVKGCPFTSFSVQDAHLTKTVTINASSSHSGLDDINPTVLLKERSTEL

What was measured:
ovine COX-1 = ovine COX-1 (Ovis aries (Sheep), UniProt P05979); assay: colorimetric COX (ovine) inhibitor screening assay kit; conditions: for COX-1 [% inhibition at 50 μM]: ovine COX-1, 50 μM; for IC50: read-out: COX-1 IC50, ovine COX-1
ovine COX-2 = ovine COX-2 (Ovis aries (Sheep), UniProt P79208); assay: as above; conditions: for COX-2 [% inhibition at 50 μM]: ovine COX-2, 50 μM

Row | Structure (SMILES) | COX-1 [% inhibition at 50 μM] (ovine COX-1) | COX-2 [% inhibition at 50 μM] (ovine COX-2) | also measured
1 | CCN=c1cc2oc3cc(NCC)c(C)cc3c(-c3ccccc3C(=O)NCCCCNC(=O)Cc3onc(-c4ccc(Cl)o4)c3-c3ccccc3)c-2cc1C | – | – | COX-1 [% inhibition at 50 μM] (ovine COX-1; tested form: chloride): [69] %; COX-2 [% inhibition at 50 μM] (ovine COX-2; tested form: chloride): −[0] %
2 | COC(=O)CNC(=O)CCCCNC(=O)Cc1onc(-c2ccc(OC)cc2)c1-c1ccc(OC)cc1 | [76] % | [49] % | –
3 | COc1ccc(-c2noc(CC(=O)NCCCCC(=O)NCC(=O)O)c2-c2ccc(OC)cc2)cc1 | [23] % | [8] % | –
4 | COc1ccc(-c2noc(CC(=O)NCCCCCCCCCCC(=O)OC[C@H]3OC(O)[C@H](O)[C@@H](O)[C@H]3O)c2-c2ccc(OC)cc2)cc1 (some centres unmarked) | [90] % | – | –
5 | COc1ccc(-c2noc(CC(=O)NCCCCC(=O)O)c2-c2ccc(OC)cc2)cc1 | [74] % | [22] % | –
6 | COc1ccc(-c2noc(CC(=O)NCCCCNC(=O)CN)c2-c2ccc(OC)cc2)cc1 | – | – | COX-1 [% inhibition at 50 μM] (ovine COX-1; tested form: HCl): [43] %; COX-2 [% inhibition at 50 μM] (ovine COX-2; tested form: HCl): [49] %
7 | COc1ccc(-c2noc(CC(=O)NCCCCCCCCCCCCNC(=O)Cc3onc(-c4ccc(OC)cc4)c3-c3ccc(OC)cc3)c2-c2ccc(OC)cc2)cc1 | – | – | IC50 (ovine COX-1): 7.1 µM; IC50 (ovine COX-2; read-out: COX-2 IC50, ovine COX-2): > 50 µM
8 | COc1ccc(-c2noc(CC(=O)NCCCCN)c2-c2ccc(OC)cc2)cc1 | – | – | COX-1 [% inhibition at 50 μM] (ovine COX-1; tested form: HCl): [94] %

Second part, led by results:

Row | COX-1 [% inhibition at 50 μM] (ovine COX-1) | COX-2 [% inhibition at 50 μM] (ovine COX-2) | Structure (SMILES) | also measured
9 | [54] % | – | COc1ccc(-c2noc(CC(=O)Nc3ccc(-c4ccc(NC(=O)CCCCCNc5ccc([N+](=O)[O-])c6nonc56)cc4)cc3)c2-c2ccc(OC)cc2)cc1 | IC50 (ovine COX-1): 39 µM; COX-2 IC50 (μM) (ovine COX-2; ovine COX-2): not active
10 | – | [60] % | CCCCC/C=C\C/C=C\C/C=C\C/C=C\CCCC(=O)Nc1ccc(-c2ccc(NC(=O)Cc3onc(-c4ccc(OC)cc4)c3-c3ccc(OC)cc3)cc2)cc1 | –
11 | [91] % | [65] % | COC(=O)CCCCNC(=O)Cc1onc(-c2ccc(OC)cc2)c1-c1ccc(OC)cc1 | –
